This test addresses EBP (Homo sapiens, UniProt Q15125). Kind of test: EBP Functional Assay (EBP immunoaffinity LC-MS assay). The settings on record: read-out: EBP Functional Assay; EBP enzyme from HEK293T cells; 30 min with inhibitor, then zymosterol-d5, 37° C., 4 h; percent conversion to dehydrolathosterol-d5 by LC-APCI MRM MS. How it is done:
The EBP immunoaffinity (IA) LC-MS assay measures the potency of small molecule inhibitors of EBP by quantifying their concentration-dependent changes in the enzyme's substrate and product using liquid chromatography atmospheric pressure chemical ionization multiple reaction monitoring mass spectrometry (LC-APCI MRM MS). HEK293T cells were utilized as the source of EBP enzyme. The enzyme was incubated with the small molecule inhibitors at variable concentrations for 30 min. Deuterated form of EBP substrate, zymosterol-d5 (Avanti Polar Lipids, Cat #700068P-1 mg), was then added and the plate was incubated at 37° C. for 4 h. Finally, the sterol isomers were extracted and injected to LC-APCI MRM MS. MRM transition used for the quantification for both zymosterol and […] (substrate and product of EBP enzymatic reaction, respectively) is 372.3-203.2, CE 30 and DP 80 in positive ion mode. Percent conversion of the zymosterol-d5 to dehydrolathosterol-d5 was used to derive IC50 curves. Tasin-1 (1′-[(4-Methoxyphenyl)sulfonyl]-4-methyl-1,4′-bipiperidine, CAS 792927-06-1) was used as the reference small molecule inhibitor.
Percent conversion versus the compound concentration data were fit to the following 4-parameter logistic model to generate IC50 curves: […]

By UniProt entry, the sequences of proteins in these tests, tags left out.
UniProt Q15125, whole entry: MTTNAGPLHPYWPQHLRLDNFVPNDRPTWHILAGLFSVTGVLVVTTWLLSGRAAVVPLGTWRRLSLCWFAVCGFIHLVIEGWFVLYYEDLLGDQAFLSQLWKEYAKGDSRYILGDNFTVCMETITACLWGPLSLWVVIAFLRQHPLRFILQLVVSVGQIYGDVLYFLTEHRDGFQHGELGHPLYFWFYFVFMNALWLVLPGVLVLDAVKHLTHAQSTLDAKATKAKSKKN

This note sets out measurements from patent publication US20250171463A1 (BIOGEN MA INC., priority 2022, published 2025).

SMILES strings stand for the structures.

As to `Cc1nc(C(F)(F)F)ccc1S(=O)(=O)N1CC2(CN(C3CCOC(C)C3)C2)C1` (single isomer, unassigned), the IC50 is less than 0.1 µM.
